IC50 data for 58 substances are collected here from patent US20240360179A1, “STAPLED PEPTIDES AND METHODS THEREOF” (FOG PHARMACEUTICALS, INC., priority 2021, published 2024).

Chains of the proteins cited; added tags and fusions are not shown.
UniProt P35222, whole entry: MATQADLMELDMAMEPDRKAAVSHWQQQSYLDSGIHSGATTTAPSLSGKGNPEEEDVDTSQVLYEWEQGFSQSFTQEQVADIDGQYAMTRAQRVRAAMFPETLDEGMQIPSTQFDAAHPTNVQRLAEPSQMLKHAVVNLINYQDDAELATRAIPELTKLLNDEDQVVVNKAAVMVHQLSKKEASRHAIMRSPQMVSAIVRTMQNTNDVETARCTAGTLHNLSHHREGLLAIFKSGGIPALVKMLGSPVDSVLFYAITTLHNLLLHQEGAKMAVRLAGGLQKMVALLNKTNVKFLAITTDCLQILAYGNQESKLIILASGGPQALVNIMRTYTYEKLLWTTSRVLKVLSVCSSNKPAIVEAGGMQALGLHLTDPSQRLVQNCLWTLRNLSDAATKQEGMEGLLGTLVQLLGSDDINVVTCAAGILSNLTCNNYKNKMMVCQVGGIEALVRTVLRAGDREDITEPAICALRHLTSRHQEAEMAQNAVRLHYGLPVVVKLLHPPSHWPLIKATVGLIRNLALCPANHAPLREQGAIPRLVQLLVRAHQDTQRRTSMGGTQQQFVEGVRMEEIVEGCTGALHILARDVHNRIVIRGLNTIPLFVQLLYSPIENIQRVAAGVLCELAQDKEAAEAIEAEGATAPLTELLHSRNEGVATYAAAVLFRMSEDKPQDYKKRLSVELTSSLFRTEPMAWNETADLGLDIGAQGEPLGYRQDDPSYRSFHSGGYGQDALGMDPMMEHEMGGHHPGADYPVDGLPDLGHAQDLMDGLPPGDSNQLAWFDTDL

The assay has as its target T1, full-length B-Catenin (Uniprot ID P35222) (Homo sapiens, UniProt P35222).
T1 construct: 10 nM full-length B-Catenin (Uniprot ID P35222)
The format is binding. Conditions: competition fluorescence polarization; read-out: beta-Catenin FP IC50.
As for “Ac-PL3-Asp-Npg-B5-Asp-3COOHF-Aib-Ala-Phe-Lys*3-PyrS2-DipA-34ClF-GlnR*3-NH2 [I-1533]”, the half-inhibitory concentration (IC50) fell in the range of 200 to 750 nM.
As for “Ac-PL3-Asp-Npg-B5-Asp-3COOHF-Aib-Ala-Phe-Lys*3-PyrS2-[3FPyr2c]2NH2F-BztA-GlnR*3-Ala-NH2 [I-1763]”, the figure is 50 to 200 nM; as for “Ac-S6-Val-Asp-DipA-B5-Asp-3COOHF-Aib-Ala-Phe-Lys*3-PyrS1-Phe-34ClF-GlnR*3-NH2 [I-1783]”, under 50 nM; as for “Ac-PL3-Asp-Chg-B5-Asp-3COOHF-Dpg-Ala-Phe-Lys*3-PyrS2-3Thi-BztA-GlnR*3-Ala-NH2 [I-980]”, under 50 nM.
With “NPyroR3-Asp-DipA-B5-Asp-3COOHF-Aib-Ala-Phe-Lys*3-PyrS2-3Thi-34ClF-GlnR*3-NH2 [I-1556]” the figure was under 50 nM.
As for “Ac-PL3-Asp-Npg-B5-Asp-3COOHF-Aib-Ala-Phe-Lys*3-PyrS2-hCypA-BztA-GlnR*3-Ala-NH2 [I-1318]”, the figure is under 50 nM.
In the case of “Ac-S5-Glu-Glu-Npg-B5-Glu-3COOHF-Aib-Ala-Phe-Lys*3-PyrS2-3Thi-BztA-GlnR*3-Ala-NH2 [I-1228]”, the concentration for half-maximal inhibition (IC50) was over 1000 nM.
With “Ac-PL3-Asp-Ile-B5-Asp-3COOHF-GlnPDA*3-Ala-Phe-Ala-PyrS2-Phe-34ClF-GlnR*3-NH2 [I-1794]” the figure was 200 to 750 nM; with “Ac-PL3-Asp-Ile-B5-Asp-3COOHF-Aib-Ala-Phe-Lys*3-PyrS2-Phe-Phe-GlnR*3-NH2 [I-1594]”, under 50 nM; with “Ac-PL3-Asp-Npg-B5-Asp-3COOHF-Aib-Ala-Phe-TriAzLys*3-[CO][Sar]PyrSa-3Thi-BztA-sAla*3-Ala-NH2 [I-1443]”, 50 to 200 nM.
With “Ac-PL3-Asp-Npg-B5-Asp-3COOHF-Aib-Ala-Phe-Lys*3-PyrS2-3Thi-BztA-GlnR*3-Leu-Ser-Leu-NH2 [I-466]” the figure was under 50 nM; with “Ac-PL3-Asp-Ile-B5-Asp-3COOHF-Aib-Ala-Phe-Lys*3-PyrS2-Phe-34ClF-hGlnR*3-NH2 [I-1371]”, under 50 nM.
Regarding “Ac-PL3-Asp-Leu-B5-Asp-3COOHF-GlnR*3-Ala-Phe-Ala-PyrS2-Phe-34ClF-GlnC4CyMe*3-NH2 [I-1899]”, the IC50 was under 50 nM.
Regarding “Ac-PL3-Asp-Ile-B5-Asp-3COOHF-CyLeu-Ala-Phe-Lys*3-PyrS2-2MeF-34ClF-GlnR*3-NH2 [I-1511]”, the IC50 was 200 to 750 nM.
As for “Ac-PL3-Asp-Npg-B5-Asp-3COOHF-Aib-Ala-Phe-Lys*3-PyrS2-3Thi-BztA-GlnR*3-Val-Thr-[mPEG8]-Lys-NH2 [I-1818]”, the figure is under 50 nM; as for “Ac-PL3-BztA-Npg-B5-Asp-3COOHF-Aib-Ala-Phe-Lys*3-PyrS2-3Thi-BztA-GlnR*3-Ala-NH2 [I-1154]”, over 1000 nM.
For “Ac-S5-Glu-Asp-Npg-B5-Glu-3COOHF-Aib-Ala-Phe-Lys*3-PyrS2-3Thi-BztA-GlnR*3-Ala-NH2 [I-1212]”, the IC50 was under 50 nM.
As for “Ac-PL3-Asp-Npg-B5-Asp-3COOHF-Aib-Ala-Phe-Lys*3-PyrS2-3Thi-BztA-GlnR*3-Thr-Ser-Thr-NH2 [I-1475]”, the figure is under 50 nM; as for “NPyroR3-Asp-Npg-B4-Asp-3COOHF-Aib-Ala-Phe-Lys*3-PyrS3-3Thi-BztA-GlnR*3-Ala-NH2 [I-1487]”, 50 to 200 nM; as for “Ac-PL3-Asp-Npg-B5-Asp-3COOHF-Aib-Ala-Phe-Lys*3-PyrS2-[2PyPrpc]2NH2F-BztA-GlnR*3-Ala-NH2 [I-1741]”, under 50 nM.
As for “Ac-PL3-Asp-DipA-B5-aThr-3COOHF-nLeu-Ala-Phe-Lys*3-PyrS2-3Thi-BztA-GlnR*3-NH2 [I-1685]”, the figure is 200 to 750 nM; as for “Ac-PL3-Asp-Ile-B5-Asp-3COOHF-Aib-Ala-Phe-Lys*3-PyrS2-Phe-34ClF-GlnR*3-Thr-Lys-Ala-NH2 [I-1355]”, under 50 nM; as for “Ac-PL3-Asp-DipA-B5-Asp-3COOHF-Ala-Ala-Phe-Lys*3-PyrS2-3Thi-34ClF-GlnR*3-Ala-Ala-[lithocholate-PEG8]-Lys-NH2 [I-1920]”, 50 to 200 nM.
As for “Ac-PL3-Asp-Npg-B5-Asp-3COOHF-Aib-Ala-4BrF-Lys*3-PyrS2-3Thi-BztA-GlnR*3-Ala-NH2 [I-573]”, the figure is under 50 nM; as for “Ac-PL3-Asp-Ile-B5-Asp-3COOHF-Aib-Ala-Phe-GlnR*3-PyrS2-Phe-34ClF-AsnR3APyr*3-NH2 [I-1419]”, under 50 nM; as for “Ac-S5-Asp-Asp-DipA-B5-Asp-3COOHF-Aib-Ala-Phe-Lys*3-PyrS1-3Thi-BztA-GlnR*3-NH2 [I-1871]”, under 50 nM.
In the case of “Ac-PL3-Asp-Npg-B5-Asp-3COOHF-Aib-Ala-Phe-Lys*3-PyrS2-[Me2MeOPr]2NH2F-BztA-GlnR*3-Ala-NH2 [I-1746]”, the IC50 lay within 750 to 1000 nM.
With “Ac-PL3-Asp-Npg-B5-Asp-3COOHF-Aib-Cba-Phe-Lys*3-PyrS2-3Thi-BztA-GlnR*3-Ala-NH2 [I-532]” the figure was under 50 nM; with “Ac-PL3-Asp-DipA-B5-Asp-3COOHF-Aib-Ala-Phe-Lys*3-PyrS2-3Thi-34ClF-GlnR*3-NH2 [I-1108]”, under 50 nM.
Take “isobutyryl-PL3-Asp-Cha-B5-Asp-3COOHF-Aib-Ala-Phe-Lys*3-PyrS2-3Thi-34ClF-GlnR*3-NH2 [I-1576]”: the IC50 is under 50 nM.
With “Ac-PL3-Asp-Ile-B5-Asp-3COOHF-Aib-Ala-Phe-Lys*3-PyrS2-hhSer-BztA-GlnR*3-Ala-NH2 [I-1313]” the figure was under 50 nM.
As for “Ac-PL3-Asp-Cba-B5-Asp-3COOHF-CyhLeu-Ala-Phe-Lys*3-PyrS2-3Thi-BztA-GlnR*3-Ala-NH2 [I-854]”, the concentration for half-maximal inhibition (IC50) is under 50 nM.
Consider “Ac-PL3-Asp-DipA-B5-Asp-3COOHF-Ala-Ala-Phe-Lys*3-PyrS2-3Thi-34ClF-GlnR*3-Ala-Ala-[lithocholate-dPEG2]-Lys-NH2 [I-1919]”, for which the 50% inhibitory concentration (IC50) is 50 to 200 nM.
As for “Ac-PL3-Asp-Ile-B5-Asp-3COOHF-Aib-Ala-Phe-Lys*3-PyrS2-Phe-34ClF-GlnR*3-Ala-Ala-[Ac]Lys-NH2 [I-1393]”, the figure is under 50 nM; as for “Ac-S5-Leu-Asp-Val-B5-Asp-3COOHF-Leu-Ala-Phe-Lys*3-PyrS1-3Thi-BztA-GlnR*3-NH2 [I-1935]”, under 50 nM.
As for “Ac-PL3-Asp-Npg-B5-Asp-TfeGA-Phe-Ala-Phe-Lys*3-PyrS2-Phe-BztA-GlnR*3-Leu-Ser-NH2 [I-902]”, the IC50 is 50 to 200 nM.
For “Ac-S5-Asp-Asp-Npg-B5-Glu-3COOHF-Aib-Ala-Phe-Lys*3-PyrS2-Phe-34ClF-GlnR*3-NH2 [I-1676]”, the IC50 was in the range of 200 to 750 nM.
As for “Ac-PL3-Asp-Cha-B5-Asp-3COOHF-Aib-Ala-Phe-Lys*3-PyrS2-2MeF-34ClF-GlnR*3-NH2 [I-1515]”, the figure is 200 to 750 nM.
With “Ac-PL3-Asp-Npg-B5-Asp-3COOHF-Aib-Ala-Phe-Lys*3-PyrS2-3Thi-BztA-GlnR*3-[mPEG8]Lys-NH2 [I-1182]” the figure was under 50 nM; with “Ac-PL3-Asp-Ile-B5-Asp-3COOHF-GlnPDA*3-Ala-Phe-Leu-PyrS2-Phe-34ClF-GlnR*3-NH2 [I-1793]”, 50 to 200 nM.
With “Ac-PL3-Asp-Leu-B5-Asp-3COOHF-GlnMeBDA*3-Ala-Phe-Leu-PyrS2-Phe-34ClF-GlnR*3-NH2 [I-1824]” the figure was under 50 nM.
On to “Ac-PL3-Asp-Npg-B5-Asp-3COOHF-Aib-Ala-Phe-[13Ac]hCys-PyrS2-3Thi-BztA-aMeC-Ala-NH2 [I-1430]”, for which the IC50 was 50 to 200 nM.
Consider “Ac-S5-Ala-Asp-Npg-B5-Asn-3COOHF-Aib-Ala-Phe-Lys*3-PyrS2-3Thi-BztA-GlnR*3-Ala-NH2 [I-1201]”, for which the 50% inhibitory concentration (IC50) was 200 to 750 nM.
For “Ac-PL3-Asp-Ile-B5-Asp-3COOHF-Phe-Ala-Phe-Lys*3-PyrS2-Phe-34MeF-GlnR*3-Ala-NH2 [I-1106]”, the IC50 is under 50 nM.
On to “NPyroR3-Asp-Npg-B5-Asp-3COOHF-Ala-Ala-Phe-Lys*3-PyrS2-3Thi-34ClF-GlnR*3-NH2 [I-1559]”, for which the IC50 is under 50 nM.
With “124TriPr-PL3-Asp-Npg-B5-Asp-3COOHF-Aib-Ala-Phe-Lys*3-PyrS2-3Thi-BztA-GlnR*3-Ala-NH2 [I-1065]” the figure was under 50 nM.
With “Ac-PL3-Asp-Npg-B5-Asp-3COOHF-Aib-Ala-Phe-Lys*3-PyrS2-[124TriAc]2NH2F-BztA-GlnR*3-Ala-NH2 [I-1737]” the figure was under 50 nM.
With “Cpc-PL3-Asp-Ile-B5-Asp-3COOHF-Aib-Ala-Phe-Lys*3-PyrS2-3Thi-34ClF-GlnR*3-NH2 [I-1586]” the figure was under 50 nM; with “Ac-PL3-Asp-Npg-B5-Asp-3COOHF-Aib-Ala-Phe-Lys*3-PyrS2-3Thi-BztA-GlnR*3-Ala-Ala-Ala-[PEG4triPEG36]Lys-NH2 [I-1526]”, under 50 nM.
For the substance “Ac-PL3-Asp-DipA-B5-Asp-3COOHF-CyLeu-Ala-Phe-Lys*3-PyrS2-3Thi-34ClF-GlnR*3-Ser-NH2 [I-1119]”, the IC50 was under 50 nM.
With “Bnc-PL3-Asp-DipA-B5-Asp-3COOHF-CyLeu-Ala-Phe-Lys*3-PyrS2-3Thi-34ClF-GlnR*3-NH2 [I-1715]” the figure was under 50 nM; with “Ac-PL3-Asp-Npg-B5-Asp-3COOHF-Aib-Ala-Phe-TriAzLys*3-[3SBz]PyrSa-3Thi-BztA-sAla*3-Ala-NH2 [I-1450]”, 50 to 200 nM; with “Ac-S5-Leu-Asp-Chg-B5-Asp-3COOHF-Leu-Ala-Phe-Lys*3-PyrS1-3Thi-BztA-GlnR*3-NH2 [I-1936]”, under 50 nM.
As for “CypCO-PL3-Asp-Ile-B5-Asp-3COOHF-Aib-Ala-Phe-Lys*3-PyrS2-3Thi-34ClF-GlnR*3-NH2 [I-1590]”, the figure is under 50 nM; as for “Ac-PL3-Asp-DipA-B5-aThr-3COOHF-nLeu-Ala-Phe-Lys*3-PyrS2-3Thi-34ClF-GlnR*3-NH2 [I-1639]”, 50 to 200 nM.
As for “Ac-PL3-Asp-Npg-B5-Asp-3COOHF-Aib-Ala-Phe-Lys*3-PyrS2-[4PyPrpc]2NH2F-BztA-GlnR*3-Ala-NH2 [I-1743]”, the figure is under 50 nM; as for “Ac-PL3-Asp-Cha-B5-Asp-3COOHF-Aib-Ala-Phe-Lys*3-PyrS2-2FF-BztA-GlnR*3-NH2 [I-1653]”, under 50 nM; as for “Ac-PL3-Asp-Npg-B5-Asp-3COOHF-[Phc]PyrSa-Ala-Phe-Lys*3-PyrS2-3Thi-BztA-GlnR*3-Ala-NH2 [I-1032]”, 50 to 200 nM.
